Measurements: article PMC11961569 (Nature Communications, 2025)

Amino acid sequences for entries named in this document (tags omitted).
UniProt P9WJY5, whole entry, looked up: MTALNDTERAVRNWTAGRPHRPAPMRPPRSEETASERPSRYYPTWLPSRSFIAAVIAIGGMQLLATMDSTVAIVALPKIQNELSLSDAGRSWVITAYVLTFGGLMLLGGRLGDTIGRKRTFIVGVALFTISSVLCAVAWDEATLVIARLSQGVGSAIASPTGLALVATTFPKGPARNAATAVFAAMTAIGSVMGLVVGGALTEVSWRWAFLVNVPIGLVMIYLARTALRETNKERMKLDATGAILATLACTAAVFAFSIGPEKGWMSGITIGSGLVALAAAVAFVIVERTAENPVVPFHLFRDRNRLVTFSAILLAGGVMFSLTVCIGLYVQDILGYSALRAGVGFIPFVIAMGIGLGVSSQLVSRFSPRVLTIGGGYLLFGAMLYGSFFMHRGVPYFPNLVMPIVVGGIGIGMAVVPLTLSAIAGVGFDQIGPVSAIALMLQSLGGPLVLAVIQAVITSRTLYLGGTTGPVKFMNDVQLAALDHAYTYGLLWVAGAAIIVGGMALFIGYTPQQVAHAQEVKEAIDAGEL

Biological target: Wild type EfpA (Mycobacterium tuberculosis, UniProt P9WJY5)

## CC[n+]1c(-c2ccccc2)c2cc(N)ccc2c2ccc(N)cc21 [ethidium bromide]
  EtBr efflux fluorescence assay in E. coli JD838 cells: comparison of transport of EtBr, with that of wildtype EfpA
